Assay results taken from US10913710B2, “Benzene disulfonamide for the treatment of cancer” (priority 2017, dated 2021).

Tests used:
PDE6δ = PDE6δ (Homo sapiens, UniProt O43924); test: Arl2-mediated displacement of fluorescently labeled inhibitors from PDE6δ (fluorescence polarization); assay type: binding
Experimental: The purification was followed by size exclusion gel filtration on a Superdex 75 S26/60 column using buffer A (25 mM Tris-HCl, pH 7.5, 150 mM NaCl and 3 mM DTE).

PDEδ = PDEδ (Homo sapiens (Human), UniProt O43924); conditions: cited from earlier work

c1ccc(Cn2c(-c3ccc(OC[C@H](C4CCNCC4)n4c(-c5ccccc5)nc5ccccc54)cc3)nc3ccccc32)cc1 [Deltarasin, reference compound]
release from PDE6δ induced by Arl2 (PDE6δ): induces release | binding affinity to PDE6δ in vitro (PDEδ): low nanomolar affinity
